The numbers were not newly measured in paper PMC11532403, “First-in-human, phase 1 dose-escalation and dose-expansion study of a RET inhibitor SY-5007 in patients with advanced RET-altered solid tumors” (Signal Transduction and Targeted Therapy, 2024), which cites them from elsewhere.

In this data set the test system is RET-altered / thyroid / lung tumors. Particulars: DECISION, RAI-refractory DTC ref 80; cited from earlier work.

Turning to `CNC(=O)c1cc(Oc2ccc(NC(=O)Nc3ccc(Cl)c(C(F)(F)F)c3)cc2)ccn1` [sorafenib], the “Median PFS” value is recorded as 10.8 months.
